Three compounds from patent US7556939B2, “Identification and characterization of racemases, definition of protein signatures, and a test for detecting D-amino acid and for screening molecules capable of inhibiting the activity of racemase, especially proline racemase” (Institut Pasteur, priority 2003, dated 2009) can be followed below.

Chains of the proteins cited; added tags and fusions are not shown. Lines headed by an entry give the natural chain unless they say otherwise; changes in a name come on top.
UniProt P00371: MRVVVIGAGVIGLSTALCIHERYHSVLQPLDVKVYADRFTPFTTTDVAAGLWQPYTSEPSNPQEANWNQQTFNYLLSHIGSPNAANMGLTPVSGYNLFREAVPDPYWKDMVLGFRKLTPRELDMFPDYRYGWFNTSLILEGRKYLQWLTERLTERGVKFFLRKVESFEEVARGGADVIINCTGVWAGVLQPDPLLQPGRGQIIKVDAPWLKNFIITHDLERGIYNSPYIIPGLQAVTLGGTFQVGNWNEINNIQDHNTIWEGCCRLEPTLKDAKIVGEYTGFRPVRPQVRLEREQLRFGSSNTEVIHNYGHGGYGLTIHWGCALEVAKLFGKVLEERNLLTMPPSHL

By Km is commonly meant the substrate concentration at which the rate is half of its maximum. For orientation: Vmax means the rate approached at saturating substrate.

One data set has as its target T1, D-AAO (Sus scrofa, UniProt P00371).
T1 construct: purchased Sigma A-5222; host or cells: swine kidney
Briefly: D-AAO/HRP microplate test for detection of D-amino acids. The class given is biochemical, swine. The conditions noted are these: 0.05 mM. The method, then: • (3) Prepare a mixture containing the enzymes (D-AAO/HRP Mix), as follows: The amounts are given for one well, provided that the final volume will be 100 μl with the racemase products or the substrate:
This mixture is kept in the ice until use. • (4) The quantitation reaction starts when 13 μl of D-AAO/HRP mix is added to the reaction well. • (5) The microplate is covered with an adhesive coverlid and it is left in the dark at 37° C. between […] and 2 hours. The reaction can be monitored by eye whenever a color gradient matches the D-amino acid concentration of the standard dilutions. • (6) The microplate is read with a microplate spectrophotometer using a filter of at 490 nm.
The D-AAO/HRP test described here above can also be used for this purpose with slight modifications. For that purpose, the racemase reaction step should be skipped and the microplate test should start straightforward at the II-1-2.1-2 step described above with the following remarks:
1) Standard: It should not be an equimolar mixture of D- and L-amino acid, but rather a serial dilution of D-Amino acids. The choice of amino acid is made according to the interest of the D-amino acid under investigation. The final volume in wells should be of 87 μl.
2) Negative control: It is made with the L-enantiomer of the D-amino acid under investigation. The final volume should be 87 μl.
3) Blank: It is made with 87 μl buffer*. […]

The next data set has as its system O=C(O)[C@@H]1CCCN1. Briefly: purified protein, by the assay type. The conditions noted are these: other: L>D conversion, 0.125 μM enzyme, pH 6.0, 37° C.

For the compound `O=C(O)[C@H]1CCCN1` [D-pro, D-proline], at D-AAO, the “Optical density at 490 nm” value was 0.159.

For “rTcPRACA (Trypanosoma cruzi strain CL Brener)”, in the data set with O=C(O)[C@@H]1CCCN1, the Km amounted to 29 mM and the maximum rate (Vmax) worked out at 5.3e-05 mol/s.

Regarding “rTcPRACB (Trypanosoma cruzi strain CL Brener)”, in the data set with O=C(O)[C@@H]1CCCN1, the Michaelis constant (Km) turned out to be 75 mM and the Vmax stood at 0.0002 mol/s.
